According to PubChem BioAssay (NCATS):
The entries are a selection whose mix differs from that of the whole data set. Inconclusive results are not listed. Calls of active or inactive are those of the source. Calls come from the whole dose curve; as a rule, active = well fitted curve in the direction sought with a large enough effect; inconclusive = small, poorly fitted or top-dose-only effect, or another doubt; inactive = no such curve, though single readings can be large; an effect the other way counts as inactive or inconclusive.

Assays:
[1] = qHTS of pediatric cancer cell lines to identify multiple opportunities for drug repurposing: Primary screen for control Hh wild type fibroblast cells (AID 1347106); details: Hh wild-type fibroblast viability, CellTiter-Glo luminescence, 48 h; at 46 µM (top of the series);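 note: % is set by controls: 0 for no effect and ±100 for the full control effect; a drop in luminescence marks cytotoxicity and a rise apparent proliferation; nearly all actives have a fitted effect of over 55% in size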
Outline: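 Viability after 48 h compound treatment at 37C, 500-1,000 cells/well, read as ATP luminescence with CellTiter-Glo. Primary screens used 11-point (MIPE, 0.78 nM-46 µM) or 8-point (NPC, 0.59 nM-46 µM) final concentrations; follow-up screens used 11-point dilutions.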

[2] = qHTS of pediatric cancer cell lines to identify multiple opportunities for drug repurposing: Primary screen for Rh30 cells (AID 1347107); details: Rh30 rhabdomyosarcoma viability, CellTiter-Glo luminescence, 48 h; at 46 µM (top of the series); note: % is set by controls: 0 for no effect and ±100 for the full control effect; nearly all actives have a fitted effect of over 75% in size
Outline: (§1)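 Cells (500-1,000/well) rested 5 h, then received compounds for 48 h; metabolically active cells were measured by CellTiter-Glo luminescence. Final concentrations spanned up to 46 µM (MIPE, 11-point) or 0.59 nM-46 µM (NPC, 8-point) in primary screens, 11-point in follow-ups.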

[3] = qHTS of pediatric cancer cell lines to identify multiple opportunities for drug repurposing: Primary screen for Rh41 cells (AID 1347108); details: Rh41 rhabdomyosarcoma viability, CellTiter-Glo luminescence, 48 h; at 46 µM (top of the series);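 note: luminescence drop marks cytotoxic hits; nearly all actives have a fitted effect of over 70% in size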
Outline: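 Quantitative HTS format: each compound titrated (MIPE 11 points from 0.78 nM, NPC 8 points from 0.59 nM) onto cells plated 5 hours earlier. After 48 h at 37 degrees C, CellTiter-Glo luminescence was recorded.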

[4] = qHTS of pediatric cancer cell lines to identify multiple opportunities for drug repurposing: Confirmatory screen for NB1643 cells (AID 1347109); details: NB1643 neuroblastoma cell viability; at 45.9 µM (top of the series);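 note: plate controls were DMSO for no effect and bortezomib for full effect; nearly all actives have a fitted effect of over 45% in size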
Outline: as §1

[5] = qHTS of pediatric cancer cell lines to identify multiple opportunities for drug repurposing: Confirmatory screen for A673 cells (AID 1347110); details: A673 Ewing sarcoma cell viability; at 45.9 µM (top of the series);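 note: cells exposed to compound for 48 h before the viability read; plate controls were DMSO neutral control for no effect and bortezomib positive control for full effect; nearly all actives have a fitted effect of over 65% in size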
Outline: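 A673 cells seeded at 500-1,000 cells/well, rested 5 h, then dosed; primary MIPE 11-point (0.78 nM to 46 µM), NPC (0.59 nM to 46 µM); confirmatory 11-point. CellTiter-Glo luminescence after 48 h.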

[6] = qHTS of pediatric cancer cell lines to identify multiple opportunities for drug repurposing: Confirmatory screen for SK-N-MC cells (AID 1347111); details: SK-N-MC cell viability; at 45.9 µM (top of the series);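 note: cells exposed to compound for 48 h before the readout; plate controls were DMSO for no effect and bortezomib for full effect; nearly all actives have a fitted effect of over 70% in size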
Outline: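 Seed 500-1,000 cells/well; rest 5 h at 37 degrees C. Pin-transfer compounds, 11-point titration. Incubate 48 h. Add CellTiter-Glo, 15 min RT, read luminescence.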

[7] = qHTS of pediatric cancer cell lines to identify multiple opportunities for drug repurposing: Confirmatory screen for BT-12 cells (AID 1347112); details: BT-12 rhabdoid tumor cells, viability; at 45.9 µM (top of the series); note: % is set by controls: 0 for no effect and ±100 for the full control effect; nearly all actives have a fitted effect of over 55% in size
Outline: as §1

[8] = qHTS of pediatric cancer cell lines to identify multiple opportunities for drug repurposing: Confirmatory screen for LAN-5 cells (AID 1347113); details: LAN-5 neuroblastoma cell viability; at 45.9 µM (top of the series); note: % is set by controls: 0 for no effect and ±100 for the full control effect; nearly all actives have a fitted effect of over 65% in size
Outline: as §1

[9] = qHTS of pediatric cancer cell lines to identify multiple opportunities for drug repurposing: Confirmatory screen for DAOY cells (AID 1347114); details: DAOY medulloblastoma cells viability, cytotoxicity qHTS; at 45.9 µM (top of the series); note: % is set by controls: 0 for no effect and ±100 for the full control effect; nearly all actives have a fitted effect of over 65% in size
Outline: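 Viability measured as metabolically active cells via CellTiter-Glo luminescence following 48 hours of compound exposure, 11-point dilutions in confirmatory testing. 500-1,000 cells/well plated 5 hours before dosing; controls were DMSO and 2.3 µM bortezomib.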

[10] = qHTS of pediatric cancer cell lines to identify multiple opportunities for drug repurposing: Confirmatory screen for NB-EBc1 cells (AID 1347115); details: NB-EBc1 neuroblastoma cells, viability (cytotoxicity); at 45.9 µM (top of the series);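 note: cells exposed to compound for 48 h before the viability read; % is set by controls: 0 for no effect and ±100 for the full control effect; nearly all actives have a fitted effect of over 45% in size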
Outline: as §1

[11] = qHTS of pediatric cancer cell lines to identify multiple opportunities for drug repurposing: Confirmatory screen for BT-37 cells (AID 1347117); details: BT-37 pediatric cancer cells, viability; at 45.9 µM (top of the series);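 note: plate controls were DMSO for no effect and bortezomib for full effect; nearly all actives have a fitted effect of over 55% in size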
Outline: as §1

[12] = qHTS of pediatric cancer cell lines to identify multiple opportunities for drug repurposing: Confirmatory screen for TC32 cells (AID 1347118); details: TC32 Ewing sarcoma cells viability qHTS; at 45.9 µM (top of the series);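 note: cells exposed to compound for 48 h before the read; % is set by controls: 0 for no effect and ±100 for the full control effect; nearly all actives have a fitted effect of over 65% in size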
Outline: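 TC32 cells, 500-1,000/well in growth medium, compound-treated 48 h at 37 °C; viability from CellTiter-Glo luminescence. Primary screen: MIPE 11-point (0.78 nM–46 µM final), NPC 8-point (0.59 nM–46 µM final); confirmatory at 11-point dilutions.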

[13] = qHTS of pediatric cancer cell lines to identify multiple opportunities for drug repurposing: Confirmatory screen for MG 63 (6-TG R) cells (AID 1347119); details: MG-63 (6-TG resistant) osteosarcoma viability; at 45.9 µM (top of the series);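 note: plate controls were DMSO neutral control for no effect and bortezomib for full effect; nearly all actives have a fitted effect of over 55% in size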
Outline: as §1

[14] = qHTS of pediatric cancer cell lines to identify multiple opportunities for drug repurposing: Confirmatory screen for control Hh wild type fibroblast cells (AID 1347121); details: viability qHTS; at 45.9 µM (top of the series);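 note: plate controls were DMSO for no effect and bortezomib for full effect; nearly all actives have a fitted effect of over 70% in size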
Outline: as §1

[15] = qHTS of pediatric cancer cell lines to identify multiple opportunities for drug repurposing: Confirmatory screen for U-2 OS cells (AID 1347122); details: U-2 OS osteosarcoma cell viability; at 45.9 µM (top of the series)
Outline: as §1

[16] = qHTS of pediatric cancer cell lines to identify multiple opportunities for drug repurposing: Confirmatory screen for Rh41 cells (AID 1347123); details: Rh41 rhabdomyosarcoma cells, viability/cytotoxicity qHTS; at 45.9 µM (top of the series);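 note: 48 h compound exposure; plate controls were DMSO for no effect and bortezomib for full effect; nearly all actives have a fitted effect of over 60% in size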
Outline: as §1

[17] = qHTS of pediatric cancer cell lines to identify multiple opportunities for drug repurposing: Confirmatory screen for RD cells (AID 1347124); details: RD rhabdomyosarcoma cell viability; at 45.9 µM (top of the series)
Outline: as §1

[18] = qHTS of pediatric cancer cell lines to identify multiple opportunities for drug repurposing: Confirmatory screen for Rh18 cells (AID 1347125); details: Rh18 rhabdomyosarcoma cells, viability; at 45.9 µM (top of the series)
Outline: as §1

[19] = qHTS of pediatric cancer cell lines to identify multiple opportunities for drug repurposing: Confirmatory screen for Rh30 cells (AID 1347126); details: Rh30 rhabdomyosarcoma cell viability; at 45.9 µM (top of the series)
Outline: as §1

[20] = qHTS of pediatric cancer cell lines to identify multiple opportunities for drug repurposing: Confirmatory screen for Saos-2 cells (AID 1347127); details: Saos-2 osteosarcoma cell viability; at 45.9 µM (top of the series);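 note: plate controls were DMSO for no effect and bortezomib for full effect; nearly all actives have a fitted effect of over 60% in size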
Outline: as §1

CCOC(=O)N1CCC(=O)CC1
inactive: activity change, negative = cytotoxic [1] 9.74% | activity change, negative = cytotoxic [2] 25.4% | activity change, negative = cytotoxic [3] 32.1% | activity change, negative = cytotoxic [4] 7.59% | activity change, negative = cytotoxicity [5] 16.5% | activity change, negative = cytotoxic [6] -9.71% | activity change, negative = cytotoxic [7] -10.8% | activity change, negative = cytotoxicity [8] 12.8% | activity change, negative = cytotoxic [9] 11.6% | activity change, negative = cytotoxic [10] 3.65% | activity change, negative = cytotoxic [11] -4.45% | activity change, negative = cytotoxicity [12] 2.63% | activity change, negative = cytotoxicity [13] 5.92% | activity, negative = cytotoxic [14] 5% | activity change, negative = cytotoxicity [15] 12.7% | activity change, negative = cytotoxic [16] 29.9% | activity change, negative = cytotoxic [17] 9.13% | activity change, negative = cytotoxic [18] -13.3% | activity change, negative = cytotoxic [19] 27.1% | activity change, negative = cytotoxic [20] 20.6%

CCOC(=O)C(=O)CBr
inactive: activity change, negative = cytotoxic [1] 3.95% | activity change, negative = cytotoxic [2] 5.85% | activity change, negative = cytotoxic [3] 1.22%

CCC(=O)N(c1ccccc1)C1CCNCC1
inactive: activity change, negative = cytotoxic [1] 4% | activity change, negative = cytotoxic [2] 2.88% | activity change, negative = cytotoxic [3] 9.01%
